Ab-91 heavy chain CDR variants: yeast mating affinities

Antigen: PDVDLGDISGINAS, a 14-residue peptide of the SARS-CoV-2 spike HR2 region.

Parent scFv Ab-91: VL joined to VH by a 15-residue (Gly4Ser)3 linker. Changes lie in the heavy chain CDRs alone.
VL: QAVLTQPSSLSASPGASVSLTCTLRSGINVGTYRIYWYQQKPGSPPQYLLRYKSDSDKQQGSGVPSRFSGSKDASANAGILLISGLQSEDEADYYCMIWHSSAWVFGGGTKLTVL
VH: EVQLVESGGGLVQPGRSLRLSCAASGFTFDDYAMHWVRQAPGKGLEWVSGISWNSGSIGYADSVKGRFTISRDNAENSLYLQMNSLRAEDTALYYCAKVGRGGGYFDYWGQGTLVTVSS

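The parent was found by panning a naive human phage display library on the peptide. In library AAYL51, one, two or three CDR residues were substituted; doubles and triples were drawn at random. Affinity was read by AlphaSeq, a pooled yeast mating assay with surface-displayed partners. After mating in shaken culture at 30 °C for 16 h, diploids were selected and their barcode pairs sequenced. A regression on co-assayed BCL2-family reference pairs converts the normalised counts of each replicate to an apparent Kd. Mating was done three times.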

Positions count from residue 1 of the parent VH; F27H puts H in place of F.
Every variant below is changed at F27 of the VH (sequential numbering).
Kd is apparent (estimated from mating counts) and averaged on the log scale over replicates with a signal. Smaller is tighter.
A pair that was not seen in any replicate is written "nd"; this usually means weak binding, but a binder can also be missed.
As a blank, each scFv also met three strains without target: over library AAYL51, 21% of these pairings were detected, typically at 34 µM and seldom below 1.8 µM.

* F27H/G102C/D107W = 78 µM (1 of 3 replicates)
* F27R/V99K/G103P = nd (0 of 3 replicates)
* F27T/S57W/Y105E = nd (0 of 3 replicates)
* F27H/G100W/G103T = 21 µM (1 of 3 replicates)
* F27G/I51S/R101T = nd (0 of 3 replicates)
* F27Y/H35W/G102P = 1.1 mM (1 of 3 replicates)
* F27N/A61M/K65Y = nd (0 of 3 replicates)
* F27D/A33V/H35D = 610 nM (1 of 3 replicates)
* F27L/S52Y/V99Q = nd (0 of 3 replicates)
* F27M/S57T/Y108M = nd (0 of 3 replicates)
* F27I/H35I/S57P = nd (0 of 3 replicates)
* F27I/H35A = 29 µM (2 of 3 replicates)
* F27N/G103P/G104L = 1.2 mM (1 of 3 replicates)
* F27S/A33G/A61P = 230 µM (2 of 3 replicates)
* F27P/G102E = 7.8 µM (2 of 3 replicates)
* F27T/V99Q/F106V = 40 µM (2 of 3 replicates)
* F27Y/N54P/K65P = nd (0 of 3 replicates)
* F27N = 24 µM (2 of 3 replicates)
* F27E/M34K/G50N = 95 µM (3 of 3 replicates)
* F27H/Y108I = 110 nM (1 of 3 replicates)
* F27M/T28R/G56N = 310 µM (1 of 3 replicates)
* F27W/N54M/D62T = 25 µM (1 of 3 replicates)
* F27T/T28F = 80 nM (3 of 3 replicates)
* F27W/I58T/Y60I = 11 µM (1 of 3 replicates)
* F27I/G59K/R101W = 650 µM (1 of 3 replicates)
* F27P/G56Q/Y105L = 520 µM (2 of 3 replicates)
* F27H/S55M/S63M = 330 µM (1 of 3 replicates)
* F27G/I51Y/G103T = 2.1 mM (1 of 3 replicates)
* F27P/I51Q/F106R = nd (0 of 3 replicates)
* F27Y/S57P/D62I = 11 µM (1 of 3 replicates)
* F27C/I51W/G56A = 92 µM (3 of 3 replicates)
* F27G/M34E/D62K = 150 µM (1 of 3 replicates)
* F27G/G50H/F106G = nd (0 of 3 replicates)
* F27N/A61M = nd (0 of 3 replicates)
* F27Y/Y32T/D107Q = 87 µM (2 of 3 replicates)

4 of these entries, quoted again:

| changes | Kd (apparent) | detected |
|---|---|---|
| F27M/S57T/Y108M | nd | 0/3 |
| F27T/V99Q/F106V | 40 µM | 2/3 |
| F27M/T28R/G56N | 310 µM | 1/3 |
| F27H/G102C/D107W | 78 µM | 1/3 |

Source: Engelhart et al. 2022 (doi:10.1038/s41597-022-01779-4), MIT Lincoln Laboratory and A-Alpha Bio; data file from the FLAb repository.